Source: EP4847049A1, “DIAGNOSTIC AGENT FOR CARDIAC FUNCTION” (dated 2026)
Like-named read-outs stand apart in the source and are kept apart here.

Key:
[1] = tested on: mitochondrial function of the heart; assay: PET measurement of side effects on the heart after acetaminophen (APAP) administration; details: 24 hours after administration, PET with [^18F]BCPP-BF, vs solvent control, FIG. 2(A)
Protocol: (§1) The rats were anesthetized with isoflurane and fixed in a gantry of an animal PET camera (SHR-38000, manufactured by Hamamatsu Photonics K.K.). After 15-minute transmission measurement was carried out for absorption correction, about 20 MBq/0.5 mL of [^18F]BCPP-BF was administered to the rats via the tail vein and 60-minute emission measurement was carried out. A region of interest was set on the heart, and the amount of [^18F]BCPP-BF accumulated in the region of interest was calculated. Subsequently, the calculated accumulation amount was normalized by the amount of radioactivity administered and the body weight of each individual and defined as an amount of [^18F]BCPP-BF accumulated in the heart (amount of radioactivity accumulated (SUV)). As a control, the amount of [^18F]FDG accumulated in the heart (amount of radioactivity accumulated (SUV)) was measured in the same manner except that [^18F]FDG was used instead of [^18F]BCPP-BF.
100 mg/kg or 300 mg/kg of APAP was administered intravenously via the tail vein of the rats. As a control, rats to which only the solvent was similarly administered intravenously were prepared. The rats were subjected to PET measurement 24 hours after administration of APAP or the solvent. The procedure for PET measurement is the same as in Test Example 2. […]

hearts of rats = details: cited from earlier work
[2] = cited from earlier work
mitochondrial function = assay: PET measurement of side effects on the heart after doxorubicin (DOX) administration; details: PET with [^18F]BCPP-BF, vs solvent control, FIG. 3
Protocol: as §1
5 mg/kg or 20 mg/kg of DOX was administered intravenously via the tail vein of the rats. As a control, rats to which only the solvent was similarly administered intravenously were prepared. The rats were subjected to PET measurement 0.5 hours, 24 hours, and 96 hours after administration of DOX or the solvent. The procedure for PET measurement is the same as in Test Example 2.

[3] = 3 weeks after repeated intravenous administration of 3 mg/kg of DOX every week; cited from earlier work
[4] = cited from earlier work; remark: listed apart in the source

SMILES | effect on the mitochondrial function of the heart ([1]; 100 mg/kg APAP intravenous) | effect on the mitochondrial function of the heart ([1]; 300 mg/kg APAP intravenous) | histological necrotic changes in the myocardium (hearts of rats; 24 hours after oral administration of 1,000 mg/kg of APAP) | expression of inflammation-related genes in the hearts (hearts of rats; hearts excised 24 hours after oral administration of 1,000 mg/kg of APAP) | blood pressure ([2]; 2 minutes after intravenous administration of 125 mg/kg of APAP) | blood pressure ([2]; after 3 minutes, intravenous 125 mg/kg of APAP, vs solvent administration group) | heart rate ([2]; intravenous 125 mg/kg of APAP) | mitochondrial function (heart) (mitochondrial function; high-dose (20 mg/kg) DOX intravenous, starting 24 hours after administration) | mitochondrial function (heart) (mitochondrial function; low-dose (5 mg/kg) DOX intravenous, 96 hours after administration) | changes in cardiac function (heart rate, cardiac output), TnI, LDH and myocardial metabolism (hyperpolarized [1-^13C]pyruvate and [2-^13C]pyruvate) [3] | abnormalities in cardiac function by CK and troponin I (TnI) ([4]; 24 hours after intravenous administration of 20 mg/kg of DOX) | abnormalities in cardiac function by CK, TnI, LDH and FABP3 ([4]; 24 hours after intravenous administration of DOX 40 mg/kg)
CC(=O)Nc1ccc(O)cc1 | significant effect | significant effect | not observed | increase | transient significant increase | no significant difference | no effect was observed |  |  |  |  | 
COc1cccc2c1C(=O)c1c(O)c3c(c(O)c1C2=O)C[C@@](O)(C(=O)CO)C[C@@H]3O[C@H]1C[C@H](N)[C@H](O)[C@H](C)O1 |  |  |  |  |  |  |  | significant decrease in mitochondrial function | significant decrease in mitochondrial function | could not be detected | could not be detected | could not be detected
